Experimental data as given in ChEMBL document CHEMBL1128928, “Synthesis and biological properties of partially modified retro and retro-inverso pseudo peptides of arg-gly-asp (RGD)” (Bioorg Med Chem Lett, 1996).

Species on record: Homo sapiens
Experiment: Compound was evaluated for inhibition of ADP-induced human platelet aggregation.
Type: functional

## N=C(N)NCCC[C@H](N)C(=O)NCC(=O)N[C@@H](CC(=O)O)C(=O)N[C@@H](CO)C(=O)O
  pIC50: 3.74

pIC50: −log10 of the molar value.
